The record followed here is article PMC6923452, “SHBG141–161 Domain-Peptide Stimulates GPRC6A-Mediated Response in Leydig and β-Langerhans cell lines” (Scientific Reports, 2019).

The subject of the assay is MA-10 cells. Put plainly: Testosterone (T) release from Leydig MA-10 cells (GPRC6A-mediated). The class given is cell-based, Mouse. To be noted: hCG 2,5 nM; 48 hours; reference agonist. An excerpt: Human ucOCN was obtained from chemical decarboxylation of cxOCN, purchased from Bachem AG (Bachem, Bubendorf, Switzerland), as previously described. For displacement experiments, an aliquot ucOCN underwent chemical biotinylation as previously described[9],[41]. Unliganded human SHBG was purchased by […], Belgium). Human chorionic gonadotropin Gonasi was purchased by IBSA Farmaceutici Srl (Italy). […] After extensive washing, primary immunoreaction was detected by appropriate secondary reagent, respectively: biotin conjugated-anti rabbit IgG (dilution 1:100; Vector Laboratories, Peterborough, UK; RRID: BA-1000) followed by Streptavidin […], (dilution 1:100; GeneTex/Prodotti Gianni, Milano, Italy; RRID: GTX85907) and FITC conjugated-anti goat IgG (dilution 1:100; Abcam, Milan, Italy; RRID: ab6737). Samples were then counterstained with 4',6-diamidino-2-phenylindole (DAPI), mounted with anti-fade buffer and then analyzed with Video-Confocal (VICO) fluorescence microscope (Nikon, Firenze, Italy). […] Results of binding and stimulation experiments are reported as mean values ± standard deviation (SD) of five independent experiments, expressed as fold increase with respect of basal conditions.

Turning to “hCG: Human chorionic gonadotropin Gonasi was purchased by IBSA Farmaceutici Srl [reference compound]”, the “T release vs basal” value was “efficiently stimulated T release”.
